Target: Human PDE4D7* (S129D) (Homo sapiens, UniProt Q08499, S190D/S715A/S717A)
Assay: PDE4 enzyme inhibition assay

Protein sequences, listed by entry. Tags and fused reporters are not part of them. Residues count along the entry.
UniProt Q08499, 1-748 isoform Q08499-11 S129D/S654A/S656A: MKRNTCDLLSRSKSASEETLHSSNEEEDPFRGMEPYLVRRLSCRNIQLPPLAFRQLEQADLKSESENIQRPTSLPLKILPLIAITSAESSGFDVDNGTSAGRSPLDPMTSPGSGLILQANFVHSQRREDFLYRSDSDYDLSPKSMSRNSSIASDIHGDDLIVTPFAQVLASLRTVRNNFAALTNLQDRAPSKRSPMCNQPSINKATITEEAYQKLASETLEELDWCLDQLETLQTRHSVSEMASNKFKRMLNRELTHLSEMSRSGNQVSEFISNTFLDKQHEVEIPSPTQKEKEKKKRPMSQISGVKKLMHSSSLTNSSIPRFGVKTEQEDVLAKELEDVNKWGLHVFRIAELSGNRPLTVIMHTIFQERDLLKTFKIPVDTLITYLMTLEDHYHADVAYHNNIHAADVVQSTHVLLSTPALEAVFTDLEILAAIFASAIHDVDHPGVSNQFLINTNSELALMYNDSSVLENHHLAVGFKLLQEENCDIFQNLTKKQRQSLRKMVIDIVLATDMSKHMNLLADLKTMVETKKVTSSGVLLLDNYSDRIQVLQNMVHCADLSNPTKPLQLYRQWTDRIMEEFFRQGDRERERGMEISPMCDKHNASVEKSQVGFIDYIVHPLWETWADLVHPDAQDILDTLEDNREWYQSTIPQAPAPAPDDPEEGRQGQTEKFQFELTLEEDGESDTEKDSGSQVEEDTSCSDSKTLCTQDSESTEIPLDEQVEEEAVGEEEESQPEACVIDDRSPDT

IC50 [nM] | Structure (SMILES) | Selectivity for PDE4D* over PDE4B
5.12 | COc1ccc(Cc2ccncc2)nc1-c1cccc(Cl)c1 [Compound 3, 2-(3-chlorophenyl)-3-methoxy-6-[(pyridin-4-yl)methyl]pyridine] | –
2.8 | COc1ccc(Cc2ccncc2)nc1-c1cccc([N+](=O)[O-])c1 [Compound 5, 3-methoxy-2-(3-nitrophenyl)-6-[(pyridin-4-yl)methyl]pyridine] | –

Structure (SMILES) | IC50 [nM] | Selectivity for PDE4D* over PDE4B
COc1ccc(Cc2cn[nH]c2)nc1-c1cccc([N+](=O)[O-])c1 [Compound 6] | 3.5 | 320
